Read-outs that look alike come from different tables or passages of the source.
Assays:
[1] = biological target: plasma LPA 18:1 and LPA 18:2 (Homo sapiens, UniProt Q13822); experiment: Human plasma ex vivo assay (LPA 18:1 / 18:2 by LC-MS/MS); type: biochemical
[2] = biological target: ATX (Homo sapiens (Human), UniProt Q13822); experiment: ATX enzyme inhibition assay (Amplex UltraRed/choline oxidase/HRP, 16:0 Lyso PC substrate); type: biochemical
[3] = read-out: Human plasma ex vivo assay IC50 (18:1 LPA) nM, 37° C., 2 hours, LPA 18:1
[4] = read-out: Human plasma ex vivo assay IC50 (18:2 LPA) nM, 37° C., 2 hours, LPA 18:2
[5] = read-out: IC50 (nM) pH 8.5, assay buffer pH 8.5

Row | SMILES | IC50 [1, 3] | IC50 [1, 4] | IC50 [2, 5] | IC50 ([2]; read-out: IC50 (nM) pH 7.5, assay buffer pH 7.5)
1 | CN(c1nc(C23CC(F)(C2)C3)c(C#N)s1)c1c2c(nc3ccc(N4CCN(CC(=O)N5CC(O)C5)CC4)cc13)CCC2 | 848 nM | 460 nM |  | 
2 | CN(C)C(=O)CN1CCN(c2cc(F)c3nc4c(c(N(C)c5nc(-c6ccc(F)cc6)c(C#N)s5)c3c2)CC4)CC1 |  |  | 26.6 nM | 
3 | CN(c1nc(-c2ccc(F)cc2)c(C#N)s1)c1c2c(nc3ccc(N4CC5(CN(C(=O)[C@@H]6CCOC6)C5)C4)nc13)COC2 | 137 nM | 148 nM | 24.5 nM | 94.1 nM
